The values below come from PubChem BioAssay AID588579 (National Center for Advancing Translational Sciences (NCATS), 2011).

Protein sequences, listed by entry. Tags and fused reporters are not part of them. Lines headed by an entry give the natural chain unless they say otherwise; changes in a name come on top.
UniProt Q9UBT6: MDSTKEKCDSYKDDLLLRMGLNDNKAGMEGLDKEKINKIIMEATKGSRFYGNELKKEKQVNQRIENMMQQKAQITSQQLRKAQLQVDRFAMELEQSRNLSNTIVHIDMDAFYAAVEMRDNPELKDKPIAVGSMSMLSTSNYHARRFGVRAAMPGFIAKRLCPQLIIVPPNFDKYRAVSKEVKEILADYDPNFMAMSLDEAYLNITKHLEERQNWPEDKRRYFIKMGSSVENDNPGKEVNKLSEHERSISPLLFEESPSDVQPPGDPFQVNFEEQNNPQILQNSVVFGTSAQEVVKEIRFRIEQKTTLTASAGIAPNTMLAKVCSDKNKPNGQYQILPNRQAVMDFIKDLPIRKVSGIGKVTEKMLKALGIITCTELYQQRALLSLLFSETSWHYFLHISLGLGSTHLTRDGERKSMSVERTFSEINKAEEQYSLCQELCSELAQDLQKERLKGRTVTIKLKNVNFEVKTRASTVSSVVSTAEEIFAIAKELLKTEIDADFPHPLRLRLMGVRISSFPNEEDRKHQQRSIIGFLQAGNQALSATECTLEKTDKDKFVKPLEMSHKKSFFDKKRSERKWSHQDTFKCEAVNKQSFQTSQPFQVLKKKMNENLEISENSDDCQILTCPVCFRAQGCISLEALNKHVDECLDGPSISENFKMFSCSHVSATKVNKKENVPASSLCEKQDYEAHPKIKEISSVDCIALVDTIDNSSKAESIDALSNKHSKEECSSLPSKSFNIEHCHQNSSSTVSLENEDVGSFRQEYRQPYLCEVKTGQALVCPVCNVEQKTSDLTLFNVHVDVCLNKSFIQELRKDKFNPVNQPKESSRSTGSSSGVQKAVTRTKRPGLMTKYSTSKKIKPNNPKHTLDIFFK

This assay has as its target DNA polymerase kappa (Homo sapiens) (UniProt Q9UBT6). The assay is described as follows: qHTS for Inhibitors of Polymerase Kappa. Particulars: purified Pol kappa, fluorescent DNA synthesis assay, 10 min. How it is done: The processing and repair of DNA interstrand crosslinks (ICL) in eukaryotic cells are extremely complex, potentially involving multiple DNA repair and damage tolerance pathways, including homologous recombination, nucleotide excision repair, translesion synthesis (TLS), and cell cycle checkpoints.
To that end, in a collaboration between the Oregon Health & Science University and the NIH Chemical Genomics Center a 1536-well high-throughput screen was developed. This fluorescent screen was assayed against the NIH Molecular Libraries Small Molecule Repository (MLSMR) to discover inhibitors of Pol Kappa.
NIH Chemical Genomics Center [NCGC]
NIH Molecular Libraries Probe Centers Network [MLPCN]
Assay Submitter (PI): Stephen Lloyd, Oregon Health & Science University
Three microliters of reagents (buffer in column 3 and 4 as negative control and 10 nM Pol kappa in columns 1, 2, and 5-48) were dispensed into a 1536-well black solid-bottom plate. Compounds (23 nL) were transferred via Kalypsys pin tool equipped with 1536-pin array. The plates were then incubated for 15 min at room temperature, and 1 uL substrate (50 nM final concentration) were then added to start the reaction and kinetically read twice at 0 min and 10 min on the Viewlux reader
A general note: In qHTS, concentration-response curves come from the screen itself.

Only a part is listed here, and it is no random draw. Inconclusive results are not listed. Active and inactive are the calls of the source. Calls follow the shape of the dose curve; as a rule, active = well fitted inhibition curve with a large enough effect; inconclusive = small, poorly fitted or top-dose-only effect, or another doubt; inactive = no such curve, though single readings can be large or run the other way.
% is scaled to controls: 0 for no effect and ±100 for the full control effect.

Regarding `O=P(Nc1nccs1)(c1ccccc1)c1nc2ccccc2s1` (centres undefined), the activity, negative = inhibition (at 107 µM (top of the series)) was inactive: -3.8%.

For the compound `O=P(Nc1nccs1)(Oc1ccccc1)Oc1ccccc1`, for the setting “at 107 µM (top of the series)”, the activity, negative = inhibition was inactive: -0.732%.

Take `CCOP1(=S)c2c(C)nn(CCC#N)c2N=C(c2ccccc2F)N1C` (centres undefined): the activity, negative = inhibition (at 107 µM (top of the series)) is inactive: -16.9%.

In the case of `O=C(O)COc1ccc([As](=O)(O)O)cc1[N+](=O)[O-]`, the activity, negative = inhibition (at 107 µM (top of the series)) was inactive: -13.7%.

For the compound `Nc1ccccc1[As](=O)(O)c1ccccc1`, the activity, negative = inhibition (at 107 µM (top of the series)) is inactive: 5.95%.

As for `NC(=O)Nc1ccc([As](=O)(O)O)cc1`, the activity, negative = inhibition runs as follows: (at 12 µM (top of the series)) inactive: -5.41%; (at 60.1 µM (top of the series)) inactive: -1.22%; (at 107 µM (top of the series)) inactive: 6.41%.

In the case of `CN(C(=O)Cc1ccccc1)[C@@H]1CC[C@]2(CCCO2)C[C@H]1N1CCCC1`, the activity, negative = inhibition runs as follows: (at 60.1 µM (top of the series)) inactive: -17.5%; (at 107 µM (top of the series)) inactive: -8.25%.

For the compound `CCOP1(=S)c2c(C)nn(CCC#N)c2N=C(c2ccc(F)cc2)N1C` (centres undefined), the activity, negative = inhibition (at 60.1 µM (top of the series)) is inactive: -13.8%.

As for `N#CCCN(C(=O)COC(=O)C(O)(c1ccccc1)c1ccccc1)c1ccc(F)cc1`, the activity, negative = inhibition (at 107 µM (top of the series)) is inactive: -9.84%.

For the compound `CN(C(=O)Cc1ccc(Cl)c(Cl)c1)[C@H]1CC[C@@]2(CCCO2)C[C@@H]1N1CCCC1`, the activity, negative = inhibition (at 107 µM (top of the series)) is inactive: -9.45%.

`O=[N+]([O-])c1ccc2c(c1)nnn2O`: for the setting “at 107 µM (top of the series)”, the activity, negative = inhibition is inactive: -6.21%.

On to `CN(C(=O)Cc1ccc(Cl)c(Cl)c1)[C@@H]1CC[C@]2(CCCO2)C[C@H]1N1CCCC1`, for which the activity, negative = inhibition (at 19.4 µM (top of the series)) was inactive: 0.98% and the activity, negative = inhibition (at 60.1 µM (top of the series)) is inactive: -3.33%.

In the case of `O=C(OC1CN2CCC1CC2)c1ccc(Cl)cc1` (centres undefined), for the setting “at 107 µM (top of the series)”, the activity, negative = inhibition is inactive: 2.23%.

Take `CS(=O)(=O)c1ccc(Cl)c(NC(=O)COC(=O)C(O)(c2ccccc2)c2ccccc2)c1`: the activity, negative = inhibition (at 107 µM (top of the series)) is inactive: -6.41%.

With `COc1cc(C(=O)NCC2(N3CCOCC3)CCCCC2)cc(Cl)c1OC(C)C`, the activity, negative = inhibition (at 107 µM (top of the series)) is inactive: -6.57%.

For `O=[As](O)(O)c1cccnc1`, under “at 107 µM (top of the series)”, the activity, negative = inhibition is inactive: -10.6%.

In the case of `O=[As](O)(c1cccc(O)c1)c1cccc(O)c1`, the activity, negative = inhibition (at 107 µM (top of the series)) was inactive: -8.86%.

Turning to `Cc1cccc(OCC(=O)OC2CN3CCC2CC3)c1` (centres undefined), under “at 107 µM (top of the series)”, the activity, negative = inhibition is inactive: -14.5%.

With `Nc1cccc2c([As](=O)(O)O)cccc12`, the activity, negative = inhibition (at 107 µM (top of the series)) was inactive: -19.2%.

Regarding `CCCOP(=S)(Nc1nc(N)cc(=O)[nH]1)OCCC`, the activity, negative = inhibition (at 107 µM (top of the series)) is inactive: -7.84%.

In the case of `CCOP(=O)(Nc1cccc2ccccc12)OCC`, for the setting “at 107 µM (top of the series)”, the activity, negative = inhibition is inactive: -4.25%.

Turning to `COc1cc(C2NCCC3(OCCO3)C2(C)C)cc(OC)c1OC` (centres undefined), for the setting “at 107 µM (top of the series)”, the activity, negative = inhibition is inactive: 3.37%.

In the case of `CCOP(=O)(NC(=NC(C)c1ccccc1)NC(C)c1ccccc1)OCC` (centres undefined), under “at 107 µM (top of the series)”, the activity, negative = inhibition is inactive: -11.4%.

As for `CCC1=CC2Cc3nc4ccc(Cl)cc4c(N)c3C(C1)C2` (centres undefined), for the setting “at 107 µM (top of the series)”, the activity, negative = inhibition was inactive: 1.82%.

As to `O=P1(Nc2ccccn2)COc2ccccc2OC1`, the activity, negative = inhibition (at 107 µM (top of the series)) is inactive: -17.2%.

For the compound `CN(CCCl)Cc1cc(Cl)c(NC2=NCCN2)c(Cl)c1`, the activity, negative = inhibition is, setting by setting: (at 19.4 µM (top of the series)) inactive: 0.396%; (at 60.1 µM (top of the series)) inactive: -5.51%; (at 107 µM (top of the series)) inactive: -14.5%.

For the compound `CCOP(=O)(Nc1ccc(C)cn1)OCC`, under “at 107 µM (top of the series)”, the activity, negative = inhibition is inactive: 9.39%.

With `CC(C)(C)C(=O)NC(Sc1ncccn1)C(Cl)(Cl)Cl` (centres undefined), the activity, negative = inhibition (at 107 µM (top of the series)) is inactive: -12.5%.

Take `Clc1n[nH]nc1-c1nn[nH][15n]1`: for the setting “at 107 µM (top of the series)”, the activity, negative = inhibition is inactive: -3.28%.

For the compound `COc1ccccc1CNC(=O)COC(=O)C(O)(c1ccccc1)c1ccccc1`, the activity, negative = inhibition (at 107 µM (top of the series)) was inactive: -16.7%.

On to `CN(C(=O)Cc1ccc(Cl)c(Cl)c1)[C@@H]1CCCC[C@H]1N1CCCC1`, for which the activity, negative = inhibition (at 19.4 µM (top of the series)) was inactive: -1.43% and the activity, negative = inhibition (at 107 µM (top of the series)) was inactive: -13.9%.

`CC(C)/C=N\N=C(\N)N[N+](=O)[O-]`: the activity, negative = inhibition (at 107 µM (top of the series)) is inactive: -1.97%.

For the compound `CC1(CBr)Cn2c(nc3ccccc3c2=O)S1` (centres undefined), the activity, negative = inhibition (at 107 µM (top of the series)) was inactive: -13.5%.

For the compound `COc1cc([N+](=O)[O-])ccc1[N+](=O)[O-]`, the activity, negative = inhibition (at 107 µM (top of the series)) was inactive: 8.65%.

Turning to `Cc1ccc(C(=O)OC2CN3CCC2CC3)cc1` (centres undefined), under “at 107 µM (top of the series)”, the activity, negative = inhibition was inactive: 3.26%.

Take `CC1CCC(C(C)C)C(OP(=O)(Nc2ccccn2)c2ccccc2)C1` (centres undefined): the activity, negative = inhibition (at 107 µM (top of the series)) is inactive: -15.3%.

As for `Cc1nn(-c2ccccc2)c2c1P(=O)(N1CCOCC1)N(C)C(c1ccccc1)=N2` (centres undefined), the activity, negative = inhibition (at 107 µM (top of the series)) was inactive: -10.8%.

In the case of `CN(C)C1(CNC(=O)c2ccc(S(C)(=O)=O)cc2)CCCCC1`, the activity, negative = inhibition (at 107 µM (top of the series)) is inactive: -4.11%.

Take `CCCC1OP(=O)(Nc2ccccc2)OCC1CC` (centres undefined): the activity, negative = inhibition (at 107 µM (top of the series)) was inactive: -15.3%.

In the case of `O=C(/C=C/c1ccccc1)OC1CN2CCC1CC2` (centres undefined), the activity, negative = inhibition (at 107 µM (top of the series)) is inactive: -15.4%.

Take `O=P1(Nc2ncccn2)COc2ccccc2OC1`: the activity, negative = inhibition (at 107 µM (top of the series)) is inactive: -0.156%.

For `Nc1cccc([As](=O)(O)c2ccccc2)c1`, the activity, negative = inhibition (at 107 µM (top of the series)) was inactive: -10.5%.

With `NS(=O)(=O)c1cccc(NC(=O)COC(=O)C(O)(c2ccccc2)c2ccccc2)c1`, the activity, negative = inhibition (at 107 µM (top of the series)) was inactive: 0.137%.

As for `O=P1(Nc2ccc(Br)cn2)COc2ccccc2OC1`, the activity, negative = inhibition (at 107 µM (top of the series)) was inactive: -9.31%.

`O=[As](O)(c1cccs1)c1cccs1`: the activity, negative = inhibition (at 107 µM (top of the series)) was inactive: 10.9%.

Regarding `Cc1ccc(OCC(=O)OC2CN3CCC2CC3)cc1` (centres undefined), the activity, negative = inhibition (at 107 µM (top of the series)) was inactive: 5.34%.

For `CCOC(=O)Nc1ccc([As](=O)(O)O)c(O)c1`, the activity, negative = inhibition (at 107 µM (top of the series)) was inactive: 9.75%.

In the case of `CC1CCNP(=O)(N(CCCl)CCCl)O1` (centres undefined), the activity, negative = inhibition (at 107 µM (top of the series)) was inactive: -3.55%.

As for `Cc1cc(SC(NC(=O)c2ccccc2)C(Cl)(Cl)Cl)nc(C(C)C)n1` (centres undefined), under “at 107 µM (top of the series)”, the activity, negative = inhibition is inactive: -17.7%.

As for `CCCCOc1ccc(C(=O)NCC2(N3CCCCC3)CCCCC2)cc1OC`, the activity, negative = inhibition (at 107 µM (top of the series)) is inactive: -24.6%.

On to `CCOC(=O)Nc1cccc([As](=O)(O)O)c1`, for which the activity, negative = inhibition (at 107 µM (top of the series)) is inactive: -7.74%.

For the compound `Cc1cc(SC(NC=O)C(Cl)(Cl)Cl)ncn1` (centres undefined), the activity, negative = inhibition (at 107 µM (top of the series)) was inactive: -14.4%.

For the compound `O=P(Nc1ccccn1)(c1cccc2ccccc12)c1cccc2ccccc12`, the activity, negative = inhibition (at 107 µM (top of the series)) was inactive: -16.2%.

`O=[N+]([O-])c1ccc(Nc2ccc(Oc3ccc([N+](=O)[O-])cc3[N+](=O)[O-])cc2)c([N+](=O)[O-])c1`: the activity, negative = inhibition (at 107 µM (top of the series)) was inactive: -10.8%.

Take `COP1(=S)c2c(C)nn(CCC#N)c2N=C(c2ccc(F)cc2)N1C` (centres undefined): where the note is “at 60.1 µM (top of the series)”, the activity, negative = inhibition is inactive: -0.182%.

As for `O=C(Nc1ccncc1[N+](=O)[O-])c1ccc([N+](=O)[O-])cc1[N+](=O)[O-]`, the activity, negative = inhibition (at 107 µM (top of the series)) was inactive: -5.1%.

As for `O=C(COc1ccccc1)OC1CN2CCC1CC2` (centres undefined), the activity, negative = inhibition (at 107 µM (top of the series)) was inactive: -3.68%.

In the case of `O=C(OC1CN2CCC1CC2)c1cccc([N+](=O)[O-])c1` (centres undefined), the activity, negative = inhibition (at 107 µM (top of the series)) is inactive: 1.89%.

`CCOC(=O)c1ccc(NC(=O)C(C)(CCl)SC)cc1` (centres undefined): under “at 107 µM (top of the series)”, the activity, negative = inhibition is inactive: -7.3%.

On to `CCC(C)N(CC(C)C)C(=S)SC(NC(C)=O)C(Cl)(Cl)Cl` (centres undefined), for which the activity, negative = inhibition (at 107 µM (top of the series)) is inactive: -0.407%.

For `CCOP(=O)(Nc1cccc2cccnc12)OCC`, the activity, negative = inhibition (at 107 µM (top of the series)) was inactive: -7.55%.

With `Cc1c2c(nc3ccccc13)SC(C(Cl)Cl)C2` (centres undefined), the activity, negative = inhibition (at 107 µM (top of the series)) was inactive: -20.3%.
